Source: patent publication US20240390521A1, “CHIMERIC MODIFIED ION CHANNELS AND USES THEREOF FOR TREATMENT OF TRIGEMINAL NERVE DISORDERS” (Kriya Therapeutics, Inc., priority 2023, published 2024)
Structures can show the parent of a compound that is named as a salt. Where two headings read alike, the source gives them in different places.

Sequences of proteins named here, by UniProt entry; tags and fusion partners are left off. A line that says so, or that is headed by a name, gives the form on record, which may keep a tag or linker.
UniProt P36544, with tags, fused parts or gaps L131G/Q139L/Y217F: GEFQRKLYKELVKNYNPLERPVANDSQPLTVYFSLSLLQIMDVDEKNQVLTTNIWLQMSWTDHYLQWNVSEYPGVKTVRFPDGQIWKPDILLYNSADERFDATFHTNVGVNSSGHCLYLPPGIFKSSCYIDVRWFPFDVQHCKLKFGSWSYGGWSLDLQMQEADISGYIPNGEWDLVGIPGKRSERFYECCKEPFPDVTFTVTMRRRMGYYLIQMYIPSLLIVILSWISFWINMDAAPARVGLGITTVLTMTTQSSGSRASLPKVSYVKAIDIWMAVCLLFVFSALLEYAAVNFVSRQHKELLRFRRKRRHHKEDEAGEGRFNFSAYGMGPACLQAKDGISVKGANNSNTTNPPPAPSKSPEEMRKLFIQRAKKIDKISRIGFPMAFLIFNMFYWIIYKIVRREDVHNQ

Molecular target: α7^L131G, Q139L, Y217F-GlyR LGIC (Homo sapiens, UniProt P36544, L131G/Q139L/Y217F)
Experiment: Agonist potency at the modified chimeric LGIC
Type: cell-based

## c1cnc2cc3c(cc2n1)[C@@H]1CNC[C@H]3C1 [varenicline, 6,10-Methano-6H-pyrazino[2,3-h][3]benzazepine, 7,8,9,10-tetrahydro-5,8,14-triazatetracyclo[10.3.1.02,11.04,9]hexadeca-2,4,6,8,10-pentaene tartrate salt]
  EC50: 1.6 ± 0.1 nM
read-out: EC50 of varenicline for α7^L131G, Q139L, Y217F-GlyR LGIC (m-α7-GlyR LGIC)
  EC50: 1.6 nM
